Compound activity deposited in PubChem by ICCB-Longwood Screening Facility, Harvard Medical School.
Compounds with a hit are over-represented: about 0.46% of the library has one in this group of screens.
GIV Gai3 FP: inhibitors of GIV GBA-motif binding to rat Galpha-i3. actives 0.42% (n = 210,000). Galpha-i3/FITC-GIV peptide fluorescence polarization, 90 min; active compounds read low; scaled: aluminum fluoride 0%, vehicle 100%. AID 1224905. percent of control (FP), % (no concentration beside the values). P08753;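 active means replicate mean at 85% of control or lower, very high polarization wells dropped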;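 further: wells of about 15 µL received 100 nL stock; the first replicate is given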
HCMV UL50-53 inh: disrupts HCMV UL50-UL53 complex binding; HTRF UL50-UL53 interaction, normalized percent inhibition; inhibition, % (test concentration not listed); actives 0.15% (n = 190,000); AID 1918969; in the data active = inhibition above about 27%, passing the limit was not always enough
The depositor's hits bear a star.

Results for Cc1noc(C)c1CSc1nc2ccccc2c(=O)n1C(C)C ?
HCMV UL50-53 inh: -9

How did CNc1nc(SCc2c(C)noc2C)nc2ccccc12 do in these assays?
HCMV UL50-53 inh: 51*

Results for Cc1cc(C)c2cc3c(cc2n1)CCN3CC(O)CO (stereo unspecified) ?
GIV Gai3 FP: -26*; HCMV UL50-53 inh: -53

How did CCCSc1nc2cc(C)c(C)cc2n1CC(O)CO (stereo unspecified) do in these assays?
HCMV UL50-53 inh: -30

Results for O=C1CC(c2ccc(F)cc2F)c2c(nc(SCc3ccc(F)cc3)[nH]c2=O)N1 (stereo unspecified) ?
GIV Gai3 FP: 113; HCMV UL50-53 inh: 3

What do the screens show for `CC(=O)Nc1c2c3c(cccc3n(C)c1=O)C(=O)c1ccccc1-2`?
GIV Gai3 FP: 94

Results for COCCCNc1c2c3c(cccc3n(C)c1=O)C(=O)c1ccccc1-2 ?
GIV Gai3 FP: -62*

What do the screens show for `OC(CN1CCN(C2CCCCC2)CC1)c1ccc2cc[nH]c2c1` (stereo unspecified)?
GIV Gai3 FP: 103; HCMV UL50-53 inh: -31

What do the screens show for `Cc1ccc(NC(=O)Nc2ccc3c(c2)N(C)C(=O)CS3)cc1`?
GIV Gai3 FP: 106

What do the screens show for `CN1C(=O)CSc2ccc(NC(=O)Nc3cccnc3)cc21`?
GIV Gai3 FP: 101; HCMV UL50-53 inh: 35*

How did COc1ccc(N(CC(=O)NCCSc2ccc(Cl)cc2)S(=O)(=O)c2ccc(C)cc2)cc1 do in these assays?
GIV Gai3 FP: 101

How did Cc1ccc2nc(COc3ccc(NC(=O)Nc4ccc(Cl)cc4)cc3)cc(=O)n2c1 do in these assays?
GIV Gai3 FP: 85*

What do the screens show for `CCOc1ccc(NC(=O)Nc2cccc(OCc3cc(=O)n4cc(Cl)ccc4n3)c2)cc1`?
GIV Gai3 FP: 107

Results for O=C(NC1CCN(Cc2ccccc2)CC1)C1CCN(c2ccc(-c3ccccc3)nn2)CC1 ?
GIV Gai3 FP: 106; HCMV UL50-53 inh: 29*

Results for O=C(NC1CCCC1)C1CCN(c2ccc(-c3ccccc3)nn2)CC1 ?
GIV Gai3 FP: 105; HCMV UL50-53 inh: -25

Molecules listed so far with an NH in an aromatic ring, in the order listed:
Results for O=C1CC(c2ccc(F)cc2F)c2c(nc(SCc3ccc(F)cc3)[nH]c2=O)N1 (stereo unspecified) ?
GIV Gai3 FP: 113; HCMV UL50-53 inh: 3

What do the screens show for `OC(CN1CCN(C2CCCCC2)CC1)c1ccc2cc[nH]c2c1` (stereo unspecified)?
GIV Gai3 FP: 103; HCMV UL50-53 inh: -31

Other results follow.
Results for NC(=O)CSc1ccc2nnc(-c3ccccc3)n2n1 ?
HCMV UL50-53 inh: -10

How did O=C(CSc1ccc2nnc(-c3ccccc3)n2n1)NC1CCCC1 do in these assays?
GIV Gai3 FP: 102; HCMV UL50-53 inh: 34*

How did CNc1c(NC(=O)c2ccccc2OC)c(=O)oc2ccccc12 do in these assays?
GIV Gai3 FP: 100; HCMV UL50-53 inh: -17

Results for O=C(Nc1ccc2snnc2c1)NC1CC1 ?
GIV Gai3 FP: 104; HCMV UL50-53 inh: 48*

Results for CNC(=O)Nc1ccc2snnc2c1 ?
GIV Gai3 FP: 102

Results for O=C(/C(=N/O)c1nc2ccccc2s1)c1ccco1 ?
GIV Gai3 FP: 108; HCMV UL50-53 inh: 2

What do the screens show for `CN(C)c1ccc(C2CC(c3ccc(Br)cc3)=NN2C(=O)CCCC(=O)O)cc1` (stereo unspecified)?
GIV Gai3 FP: 95; HCMV UL50-53 inh: -71

Results for CCOC(=O)c1cccc(NC(=O)NCc2c(C)nn(C)c2C)c1 ?
GIV Gai3 FP: 104; HCMV UL50-53 inh: -24

What do the screens show for `COc1cc(C=C2C(=O)NC(=O)NC2=O)ccc1OCc1ccccc1[N+](=O)[O-]`?
GIV Gai3 FP: 101; HCMV UL50-53 inh: -11

What do the screens show for `COc1cc(C=C2C(=O)NC(=O)NC2=O)ccc1Oc1ccc([N+](=O)[O-])cc1[N+](=O)[O-]`?
GIV Gai3 FP: 102; HCMV UL50-53 inh: 49*

What do the screens show for `Cc1ccc(N(Cc2ccccc2)C(=O)c2cccnc2)cc1`?
HCMV UL50-53 inh: -4

How did Cn1c(=O)c2[nH]c(SCC(=O)C(C)(C)C)nc2n(C)c1=O do in these assays?
HCMV UL50-53 inh: -11

Results for CC(Sc1nc2c([nH]1)c(=O)n(C)c(=O)n2C)C(=O)O (stereo unspecified) ?
GIV Gai3 FP: 85*; HCMV UL50-53 inh: -11

What do the screens show for `COc1ccccc1N=Cc1sc2ccccc2c1O`?
GIV Gai3 FP: -53*; HCMV UL50-53 inh: -33

How did COc1ccc(N=Cc2sc3ccccc3c2Cl)cc1 do in these assays?
HCMV UL50-53 inh: 27

Quoted at random: 3 compounds from above, in no set order.
What do the screens show for `COc1cc(C=C2C(=O)NC(=O)NC2=O)ccc1Oc1ccc([N+](=O)[O-])cc1[N+](=O)[O-]`?
GIV Gai3 FP: 102; HCMV UL50-53 inh: 49*

Results for O=C(/C(=N/O)c1nc2ccccc2s1)c1ccco1 ?
GIV Gai3 FP: 108; HCMV UL50-53 inh: 2

How did Cn1c(=O)c2[nH]c(SCC(=O)C(C)(C)C)nc2n(C)c1=O do in these assays?
HCMV UL50-53 inh: -11

Later entries
How did CCOc1ccc(N=Cc2sc3ccccc3c2O)cc1 do in these assays?
GIV Gai3 FP: -15*; HCMV UL50-53 inh: -24

Results for Cc1ccccc1N=Cc1sc2ccccc2c1O ?
GIV Gai3 FP: 157; HCMV UL50-53 inh: -15

How did Cc1ccc(C)n1CCC(C)C do in these assays?
HCMV UL50-53 inh: -22

How did COc1cc(C2C(C(=O)c3cc4cccc(OC)c4o3)=C(O)C(=O)N2c2nnc(C)s2)cc(Br)c1O (stereo unspecified) do in these assays?
GIV Gai3 FP: 27*; HCMV UL50-53 inh: -74

What do the screens show for `COc1cccc2cc(C(=O)C3=C(O)C(=O)N(CCCn4ccnc4)C3c3ccc(F)cc3)oc12` (stereo unspecified)?
GIV Gai3 FP: 105; HCMV UL50-53 inh: -61

How did COc1cc(NC(=O)c2ccc3c(-n4ccnc4)c4c(nc3c2)CCCC4)cc(OC)c1OC do in these assays?
GIV Gai3 FP: 97

What do the screens show for `O=c1c2ccccc2nc2c(-c3nc(-c4ccc5c(c4)OCO5)no3)cccn12`?
GIV Gai3 FP: 58*; HCMV UL50-53 inh: -18

What do the screens show for `O=c1c2ccccc2nc2c(-c3nc(-c4ccccc4)no3)cccn12`?
GIV Gai3 FP: 118; HCMV UL50-53 inh: -27

How did CC1(CNS(=O)(=O)c2ccc(F)cc2F)CCOCC1 do in these assays?
GIV Gai3 FP: 101

How did CCCN1C(=O)/C(=C/C=C2/Oc3ccccc3N2CCC(=O)O)N(CCO)C1=S do in these assays?
GIV Gai3 FP: -18*

Results for CCN1/C(=C/C=C2\SC(=S)N(C)C2=O)Oc2ccccc21 ?
GIV Gai3 FP: 162; HCMV UL50-53 inh: -50

What do the screens show for `Cc1nnc(N2C(=O)C(O)=C(C(=O)c3cccs3)C2c2ccccc2F)s1` (stereo unspecified)?
GIV Gai3 FP: -9.4*; HCMV UL50-53 inh: -61

What do the screens show for `O=C(C1=C(O)C(=O)N(c2ccccn2)C1c1ccccc1)c1cccs1` (stereo unspecified)?
HCMV UL50-53 inh: -34

What do the screens show for `Cc1cc(C)cc(NC(=O)c2sc3nc(-c4cc5ccccc5oc4=O)[nH]c(=O)c3c2C)c1`?
GIV Gai3 FP: 98; HCMV UL50-53 inh: -7

What do the screens show for `Cc1cccc(NC(=O)c2sc3nc(-c4cc5ccc(O)cc5oc4=O)[nH]c(=O)c3c2C)c1`?
GIV Gai3 FP: -66*; HCMV UL50-53 inh: -18

How did Nc1ncc(-c2cccnc2)nc1C(=O)c1cccnc1 do in these assays?
HCMV UL50-53 inh: -62

How did O=C(CSc1nc2c(sc3ncccc32)c(=O)n1Cc1ccccc1)Nc1ccc(F)c(F)c1 do in these assays?
GIV Gai3 FP: 102; HCMV UL50-53 inh: 68*

What do the screens show for `O=C(CSc1nc2c(sc3ncccc32)c(=O)n1Cc1ccc(F)cc1)Nc1ccc(F)c(F)c1`?
GIV Gai3 FP: 101; HCMV UL50-53 inh: 64*

How did CCOC(=O)CSc1nc2c(sc3ccccc32)c(=O)n1Cc1ccc(C)cc1 do in these assays?
GIV Gai3 FP: 105

How did COc1ccc(Cn2c(SCC(=O)Nc3cccc(Cl)c3)nc3ncccc3c2=O)cc1 do in these assays?
GIV Gai3 FP: 105; HCMV UL50-53 inh: 2

How did CC(C)CSc1nc2c(sc3ncccc32)c(=O)n1Cc1ccccc1 do in these assays?
GIV Gai3 FP: 103; HCMV UL50-53 inh: 62*

What do the screens show for `O=C(Cn1cnc2c(sc3ncccc32)c1=O)Nc1ccc(F)c(F)c1`?
GIV Gai3 FP: 104

Results for Cc1nc2nc(-c3ccccc3)c(-c3ccccc3)n2nc1C ?
GIV Gai3 FP: 116
